Biological target: Clk4 (Homo sapiens, UniProt Q9HAZ1)
Assay: Kinase Glo
Type: biochemical
Settings: bioluminescent qHTS assays

Sequences of proteins named here, by UniProt entry; tags and fusion partners are left off.
UniProt Q9HAZ1, whole entry, species assumed: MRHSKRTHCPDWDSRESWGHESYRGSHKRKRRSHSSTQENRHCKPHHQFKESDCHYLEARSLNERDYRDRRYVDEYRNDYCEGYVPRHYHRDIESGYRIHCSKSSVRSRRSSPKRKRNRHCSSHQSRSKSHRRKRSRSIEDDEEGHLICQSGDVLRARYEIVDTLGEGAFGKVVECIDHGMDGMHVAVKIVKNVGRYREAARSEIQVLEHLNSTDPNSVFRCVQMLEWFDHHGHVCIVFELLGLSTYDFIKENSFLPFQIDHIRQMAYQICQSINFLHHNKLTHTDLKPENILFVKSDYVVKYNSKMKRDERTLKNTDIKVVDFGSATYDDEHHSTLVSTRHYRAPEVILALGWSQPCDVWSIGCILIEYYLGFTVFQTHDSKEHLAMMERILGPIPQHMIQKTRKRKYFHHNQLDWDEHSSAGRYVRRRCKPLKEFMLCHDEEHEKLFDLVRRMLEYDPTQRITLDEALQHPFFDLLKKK

Clc1ccc(CNc2nccc(-c3ccc4[nH]ncc4c3)n2)cc1Cl [Compound 22]
selectivity for Clk4 over Dyrk1A: > 10 fold
